From patent US11396496B2, “1,4-substituted isoquinoline inhibitors of KEAP1/NRF2 protein-protein interaction” (THE BOARD OF TRUSTEES OF THE UNIVERSITY OF ILLINOIS, priority 2018, dated 2022)

The chains behind the UniProt entries cited, without tags or fusion partners. Residues count along the entry.
UniProt Q14145, 321-609 limits assumed: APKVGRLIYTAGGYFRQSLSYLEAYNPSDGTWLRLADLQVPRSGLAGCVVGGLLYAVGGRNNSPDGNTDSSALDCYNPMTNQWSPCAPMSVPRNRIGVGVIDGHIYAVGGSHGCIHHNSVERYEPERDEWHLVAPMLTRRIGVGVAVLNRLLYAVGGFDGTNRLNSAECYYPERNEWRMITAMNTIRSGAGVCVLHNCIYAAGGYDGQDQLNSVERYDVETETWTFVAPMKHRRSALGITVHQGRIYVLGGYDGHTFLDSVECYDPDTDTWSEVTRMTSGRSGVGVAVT

Biological target: Kelch domain of KEAP1 (Homo sapiens (Human), UniProt Q14145)
Experiment: Fluorescence anisotropy assay of KEAP1-NRF2 interaction inhibition
Assay type: binding

IC50 (Table C, unit inferred): 938 nM | IC50 (fluorescent NRF2 peptide and Kelch domain of KEAP1, fluorescence anisotropy): 938 nM
Structure (SMILES): COc1ccc(S(=O)(=O)Nc2cnc(N3C[C@H](c4ccccc4)C[C@H]3C(=O)O)c3ccccc23)cc1
